# From US8298782B2, “Reversible MHC multimer staining for functional purification of antigen-specific T cells” (priority 2000, dated 2012)
# System: T cells
# Conditions: tested up to a concentration of 50 mM
smiles,measurement,value
O=C(O)CCCC[C@@H]1SC[C@@H]2NC(=O)N[C@@H]21 [biotin],toxicity or changes of T cell function,non-toxic for T cells and does not alter T cell function
